Experimental data published in paper PMC10465125 (eLife, 2023).

Experiments:
293T-ACE2 cells = assay: Cytotoxicity assay (MTT), 293T-ACE2; format: cell-based, human; details: 24 hr, tested concentrations given in μg/ml
Experimental: (§1) The human embryonic kidney cells 293T stably expressing recombinant human ACE2 (293T-ACE2) were maintained in DMEM containing 10% FBS, 1% P/S, and […] hygromycin. The NCI-H460 cell line (human non-small cell lung cancer cells) was preserved in Modified Eagle’s Medium (MEM, Gibco, USA) supplemented with 10% FBS and 1% P/S. The VeroE6 cell line (African green monkey kidney cells) was grown in Dulbecco’s Modified Eagle’s Medium (DMEM, Gibco) supplemented with 10% fetal bovine serum (FBS, Gibco), 1× GlutaMAX (Gibco), and 1% penicillin/streptomycin (P/S, Hyclone, USA). All these cells were cultured at 37°C and 5% CO2. All cell lines are checked annually for mycoplasma contamination, and human cell lines were authenticated through STR profiling.
(§2) […]. The medium was removed, and viable cells were detected with MTT assay (Cyrusbioscience, Taiwan), which was read by absorbance at 570 nm by an ELISA reader. All experiments were performed independently in triplicates and repeated three times.

NCI-H460 cells = assay: Cytotoxicity assay (MTT), NCI-H460; format: cell-based, human; details: 24 hr, tested concentrations given in μg/ml
Experimental: as §1, §2

VeroE6 cells = assay: Cytotoxicity assay (MTT), VeroE6; format: cell-based, African green monkey; details: tested concentrations given in μg/ml
Experimental: as §1, §2

tannic acid [reference compound]
CC50 (median cytotoxic concentration) (293T-ACE2 cells): 143.9±11.58
CC50 (median cytotoxic concentration) (NCI-H460 cells): 71.57±4.98
CC50 (median cytotoxic concentration) (VeroE6 cells): 128.70±11.22
